Molecular target: T1, PC1-HA (full-length HA-tagged Polycystin-1) (UniProt P98161 24-4303)
T1 construct: Polycystin-1 (PC1, PKD1), full length; plasmid previously reported (Xu et al., 2016); also called Full-length PC1; source: HEK-293, transfected, in lysate
Assay: co-IP; myc-mBicc1 constructs co-expressed with HA-tagged PC1 or PC2 in HEK-293 cells; the HA-tagged protein as bait
Details: partners not purified

The chains behind the UniProt entries cited, without tags or fusion partners. Residues count along the entry.
UniProt P98161, 24-4303: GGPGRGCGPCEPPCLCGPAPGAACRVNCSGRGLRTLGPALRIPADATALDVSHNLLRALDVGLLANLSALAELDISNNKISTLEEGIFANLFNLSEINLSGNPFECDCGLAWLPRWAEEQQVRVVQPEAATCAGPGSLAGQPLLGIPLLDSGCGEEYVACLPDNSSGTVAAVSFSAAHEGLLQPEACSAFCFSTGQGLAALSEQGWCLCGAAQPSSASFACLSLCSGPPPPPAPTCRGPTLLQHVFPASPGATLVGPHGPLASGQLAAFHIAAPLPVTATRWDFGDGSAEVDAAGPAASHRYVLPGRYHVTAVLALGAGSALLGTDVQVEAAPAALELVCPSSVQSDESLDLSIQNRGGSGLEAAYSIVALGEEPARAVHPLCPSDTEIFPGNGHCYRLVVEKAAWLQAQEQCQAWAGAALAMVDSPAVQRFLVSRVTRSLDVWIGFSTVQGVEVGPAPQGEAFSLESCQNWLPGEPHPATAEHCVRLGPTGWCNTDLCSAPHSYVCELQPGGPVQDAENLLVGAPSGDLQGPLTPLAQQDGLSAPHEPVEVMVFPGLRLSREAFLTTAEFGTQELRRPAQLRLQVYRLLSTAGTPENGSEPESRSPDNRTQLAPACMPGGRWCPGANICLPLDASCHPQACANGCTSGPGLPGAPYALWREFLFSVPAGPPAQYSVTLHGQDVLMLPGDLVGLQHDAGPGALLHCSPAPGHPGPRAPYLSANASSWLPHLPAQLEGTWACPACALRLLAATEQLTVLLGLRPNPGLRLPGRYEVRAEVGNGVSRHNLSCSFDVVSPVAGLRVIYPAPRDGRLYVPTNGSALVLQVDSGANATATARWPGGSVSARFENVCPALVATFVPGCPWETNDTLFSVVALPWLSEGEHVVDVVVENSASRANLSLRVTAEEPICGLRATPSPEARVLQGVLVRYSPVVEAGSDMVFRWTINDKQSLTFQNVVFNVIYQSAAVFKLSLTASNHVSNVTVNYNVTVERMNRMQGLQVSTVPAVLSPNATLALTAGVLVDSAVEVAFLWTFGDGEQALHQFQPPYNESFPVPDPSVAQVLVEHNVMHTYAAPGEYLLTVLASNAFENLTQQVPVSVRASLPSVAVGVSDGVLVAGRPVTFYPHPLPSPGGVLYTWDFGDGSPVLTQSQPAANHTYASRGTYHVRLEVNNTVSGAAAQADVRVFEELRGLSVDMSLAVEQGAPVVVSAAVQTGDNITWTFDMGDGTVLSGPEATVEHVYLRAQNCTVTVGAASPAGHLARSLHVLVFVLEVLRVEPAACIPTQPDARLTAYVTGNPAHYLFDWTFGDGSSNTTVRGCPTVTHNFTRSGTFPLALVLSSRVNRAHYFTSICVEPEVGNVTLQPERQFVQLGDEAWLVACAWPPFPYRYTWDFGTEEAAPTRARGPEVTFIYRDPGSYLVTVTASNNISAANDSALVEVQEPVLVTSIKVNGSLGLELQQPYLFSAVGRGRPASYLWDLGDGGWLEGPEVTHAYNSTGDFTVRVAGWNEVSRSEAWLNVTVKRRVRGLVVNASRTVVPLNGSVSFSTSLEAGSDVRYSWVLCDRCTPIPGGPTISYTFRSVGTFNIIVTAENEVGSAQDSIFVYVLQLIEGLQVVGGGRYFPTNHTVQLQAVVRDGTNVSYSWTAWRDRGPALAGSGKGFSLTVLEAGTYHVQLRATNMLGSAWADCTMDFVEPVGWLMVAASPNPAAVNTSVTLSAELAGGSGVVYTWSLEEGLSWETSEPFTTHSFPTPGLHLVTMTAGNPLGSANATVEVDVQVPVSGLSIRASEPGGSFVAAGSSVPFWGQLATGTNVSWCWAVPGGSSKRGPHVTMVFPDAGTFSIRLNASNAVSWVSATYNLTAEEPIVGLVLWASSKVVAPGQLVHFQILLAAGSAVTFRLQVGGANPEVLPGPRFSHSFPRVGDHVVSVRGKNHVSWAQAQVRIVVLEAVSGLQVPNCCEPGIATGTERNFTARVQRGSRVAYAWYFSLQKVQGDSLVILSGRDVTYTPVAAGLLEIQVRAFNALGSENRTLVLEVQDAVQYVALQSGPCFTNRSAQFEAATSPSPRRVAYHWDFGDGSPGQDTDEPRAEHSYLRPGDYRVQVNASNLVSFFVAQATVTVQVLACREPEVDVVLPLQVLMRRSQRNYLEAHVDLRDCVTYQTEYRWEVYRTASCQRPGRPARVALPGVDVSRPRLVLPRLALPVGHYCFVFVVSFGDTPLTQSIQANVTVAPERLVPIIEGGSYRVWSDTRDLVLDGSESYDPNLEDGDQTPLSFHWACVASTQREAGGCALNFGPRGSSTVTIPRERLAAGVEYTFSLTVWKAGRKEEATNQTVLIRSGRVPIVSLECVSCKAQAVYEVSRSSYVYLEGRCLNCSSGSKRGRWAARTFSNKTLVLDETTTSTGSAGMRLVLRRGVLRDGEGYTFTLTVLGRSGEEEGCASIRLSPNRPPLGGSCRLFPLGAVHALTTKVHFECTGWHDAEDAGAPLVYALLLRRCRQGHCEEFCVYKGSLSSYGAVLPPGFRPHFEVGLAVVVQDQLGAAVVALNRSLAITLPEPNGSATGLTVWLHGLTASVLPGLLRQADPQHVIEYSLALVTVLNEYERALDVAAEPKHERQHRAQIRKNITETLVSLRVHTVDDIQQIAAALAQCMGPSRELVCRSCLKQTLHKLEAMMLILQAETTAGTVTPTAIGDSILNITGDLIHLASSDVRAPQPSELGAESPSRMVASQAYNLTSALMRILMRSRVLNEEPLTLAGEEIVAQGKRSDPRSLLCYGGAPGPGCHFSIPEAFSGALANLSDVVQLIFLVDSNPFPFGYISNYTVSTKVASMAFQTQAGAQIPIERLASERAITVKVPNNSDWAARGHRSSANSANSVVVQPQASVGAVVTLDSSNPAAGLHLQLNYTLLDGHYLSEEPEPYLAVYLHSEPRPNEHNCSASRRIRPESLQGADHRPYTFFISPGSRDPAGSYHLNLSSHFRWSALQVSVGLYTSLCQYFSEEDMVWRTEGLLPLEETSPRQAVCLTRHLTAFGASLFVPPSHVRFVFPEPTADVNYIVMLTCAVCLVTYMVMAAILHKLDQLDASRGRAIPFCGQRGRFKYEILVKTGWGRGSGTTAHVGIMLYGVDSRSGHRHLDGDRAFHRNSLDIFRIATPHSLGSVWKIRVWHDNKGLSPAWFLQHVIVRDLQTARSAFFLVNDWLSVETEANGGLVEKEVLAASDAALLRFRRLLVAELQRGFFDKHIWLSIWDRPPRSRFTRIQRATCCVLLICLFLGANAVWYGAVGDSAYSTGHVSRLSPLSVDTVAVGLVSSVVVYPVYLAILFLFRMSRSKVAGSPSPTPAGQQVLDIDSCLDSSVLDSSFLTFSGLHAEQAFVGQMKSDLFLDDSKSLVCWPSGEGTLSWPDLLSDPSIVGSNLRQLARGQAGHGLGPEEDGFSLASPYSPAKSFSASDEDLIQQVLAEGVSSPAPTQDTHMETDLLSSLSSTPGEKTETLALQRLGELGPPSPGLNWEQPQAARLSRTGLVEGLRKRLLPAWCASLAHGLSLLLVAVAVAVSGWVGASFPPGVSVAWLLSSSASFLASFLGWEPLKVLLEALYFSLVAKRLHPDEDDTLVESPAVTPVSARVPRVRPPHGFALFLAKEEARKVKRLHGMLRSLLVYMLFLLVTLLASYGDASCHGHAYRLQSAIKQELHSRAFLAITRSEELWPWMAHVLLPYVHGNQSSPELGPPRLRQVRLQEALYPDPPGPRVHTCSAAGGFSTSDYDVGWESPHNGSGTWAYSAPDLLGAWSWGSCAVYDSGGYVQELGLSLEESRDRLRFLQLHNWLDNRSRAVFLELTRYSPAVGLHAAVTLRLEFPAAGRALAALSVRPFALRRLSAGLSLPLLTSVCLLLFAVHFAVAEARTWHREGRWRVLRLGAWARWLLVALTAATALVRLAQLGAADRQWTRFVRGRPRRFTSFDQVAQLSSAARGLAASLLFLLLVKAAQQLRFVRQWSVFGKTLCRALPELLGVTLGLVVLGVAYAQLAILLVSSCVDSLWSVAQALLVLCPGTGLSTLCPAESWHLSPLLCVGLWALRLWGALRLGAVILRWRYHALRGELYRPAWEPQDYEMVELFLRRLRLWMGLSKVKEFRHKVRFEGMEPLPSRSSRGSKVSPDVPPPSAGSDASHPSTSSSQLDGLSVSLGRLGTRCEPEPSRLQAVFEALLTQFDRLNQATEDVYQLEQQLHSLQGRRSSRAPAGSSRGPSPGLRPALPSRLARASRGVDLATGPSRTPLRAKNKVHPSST

fold change of the interaction against myc-mBicc1 or myc-mBicc1-ΔSAM: 8 fold
B1: myc-mBicc1-ΔKH (aa352-977) (domain or fragment, mouse, UniProt Q99MQ1 352-977, looked up)
chain: GCLPLVLMFDMKEDIEVDPQVIAQLMEQLDVFISIKPKPKQPSKSVIVKSVERNALNMYEARKCLLGLESSGVSIATSLSPASCPAGLACPSLDILASAGLGLTGLGLLGPTTLSLNTSATPNSLLNALNTSVSPLQSSSSGTPSPTLWAPPIANTASATGFSTIPHLMLPSTAQATLTNILLSGVPTYGHTAPSPPPGLTPVDVHINSMQTEGKNISASINGHVQPANMKYGPLSTSSLGEKVLSSNHGDPSMQTAGPEQASPKSNSVEGCNDAFVEVGMPRSPSHSGNAGDLKQMLGASKVSCAKRQTVELLQGTKNSHLHGTDRLLSDPELSATESPLADKKAPGSERAAERAAAAQQKSERARLASQPTYVHMQAFDYEQKKLLATKAMLKKPVVTEVRTPTNTWSGLGFSKSMPAETIKELRRANHVSYKPTMTTAYEGSSLSLSRSSSREHLASGSESDNWRDRNGIGPMGHSEFSAPIGSPKRKQNKSREHYLSSSNYMDCISSLTGSNGCNLNSCFKGSDLPELFSKLGLGKYTDVFQQQEIDLQTFLTLTDQDLKELGITTFGARRKMLLAISELSKNRRKLFEPPNASCTSFLEGGASGRLPRQYHSDIASVSGRW
notes: Bicc1, mouse, aa352-977, lacks the KH/KHL domains (aa1-351); also called myc-mBicc1-△KH; source: HEK-293, transfected, in lysate

Source: article PMC12900513, “BICC1 interacts with PKD1 and PKD2 to drive cystogenesis in ADPKD” (eLife, 2026)
